One substance from patent US20120258076A1, “METHOD FOR CHARACTERIZING HOST IMMUNE FUNTION BY EX VIVO INDUCTION OF OFFENSIVE AND DEFENSIVE IMMUNE MARKERS” (HITACHI CHEMICAL RESEARCH CENTER, INC., priority 2009, published 2012) can be followed below.

Holding throughout (type): cell-based, human
For test [1], the system named is whole blood. The test is described as follows: Time course of mRNA induction in stimulated whole blood (FIG. 1). Particulars: whole blood of healthy adults, 37° C., 0-20 hours, rIL-2 100 ng/mL or PHA. As to the method:
Whole blood samples were collected from healthy human adults. Blood samples were heparinized when collected and placed into several individual tubes for an induction time course study. Eighteen equal volume aliquots from each tube were then stimulated with either phosphate buffered saline (PBS), rIL-2 at 100 ng/mL, or phytohemagglutinin (PHA). The aliquots were incubated at 37° C. for 0, 1, 2, 4, 8, or 20 hours. After incubation, samples were stored at −80° C. until analysis. Each sample was stimulated and analyzed in triplicate. mRNA encoding beta-actin, IL-2, IL-2 receptor type a (CD25) and IL-2 receptor type b (CD122) were measured according to the methods described in Mitsuhashi M, et al., Clin Chem 52:634-642 (2006), which is incorporated in its entirety by reference herein. […]
cDNA was synthesized directly in each well by addition of 30 μL of buffer containing 1× reverse transcription buffer [50 mM KCl, 10 mM Tris-HCl (pH 8.3), 5.5 mM MgCl2, 1 nL/μL Tween 20], 1.25 mM each deoxynucleoside triphosphate, 4 units of rRNasin, and 80 U of MMLV reverse transcriptase (Promega; without primers) and incubation at 37° C. for 2 h. […] The cycle threshold (Ct), i.e., the cycle at which certain amounts of PCR products (based on fluorescence) were generated, was determined with analytical software (SDS; Applied Biosystems). […]

Test [2] deals with whole blood. The test is described as follows: Leukocyte function by ex vivo stimulation of whole blood with rIL-2 or zymosan (Table 2). Particulars: rIL-2 100 ng/mL, 4 hours at 37° C., vs control samples. As to the method: Whole blood samples were collected from healthy human adults. Blood samples were heparinized when collected and placed into several individual tubes for an induction time course study. Eighteen equal volume aliquots from each tube were then stimulated with either phosphate buffered saline (PBS), rIL-2 at 100 ng/mL, or phytohemagglutinin (PHA). The aliquots were incubated at 37° C. for 0, 1, 2, 4, 8, or 20 hours. After incubation, samples were stored at −80° C. until analysis. Each sample was stimulated and analyzed in triplicate. mRNA encoding beta-actin, IL-2, IL-2 receptor type a (CD25) and IL-2 receptor type b (CD122) were measured according to the methods described in Mitsuhashi M, et al., Clin Chem 52:634-642 (2006), which is incorporated in its entirety by reference herein.
Briefly, 96-well filterplates were assembled with leukocyte reduction membranes (Leukosorb; Pall) and placed over oligo(dT)-immobilized collection plates. 150 μL of 5 mmol/L Tris (pH 7.4) was applied to wet the filter membranes. After centrifugation at 120 g for 1 min at 4° C. to remove the Tris solution from the membranes, 50 μL of the stimulated whole blood samples was applied to each well and immediately centrifuged at 120 g for 2 min at 4° C. The wells were then washed once with 300 μL of phosphate-buffered saline. After centrifugation at 2000 g for 5 min at 4° C. to remove the saline solution, 60 μL of stock lysis buffer [5 g/L N-lauroylsarcosine, 4× standard saline citrate, 10 mmol/L Tris-HCl (pH 7.4), 1 mmol/L EDTA, 1 mL/L IGEPAL CA-630 (substitute of NP-40), 1.79 mol/L guanidine thiocyanate (all from Sigma)], supplemented with 10 mL/L 2-mercaptoethanol (Bio-Rad), 0.5 g/L proteinase K (Pierce), 0.1 g/L salmon sperm DNA (5 Prime Eppendorf/Brinkman), 0.1 g/L Escherichia coli tRNA (Sigma), 5 nmol/L each of the specific reverse primers, and 10^10 molecules/L of synthetic RNA34 (as external control), was added to each well of the filterplates. The plates were then incubated at 37° C. for 10 min, placed over oligo(dT)-immobilized collection microplates (GenePlate; RNAture), and centrifuged at 2000 g for 5 min at 4° C. After overnight storage at 4° C., the microplates were washed 3 times with 100 μL of plain lysis buffer and then 3 times with 150 μL of wash buffer [0.5 mol/L NaCl, 10 mmol/L Tris (pH 7.4) 1 mmol/L EDTA] at 4° C.
cDNA was synthesized directly in each well by addition of 30 μL of buffer containing 1× reverse transcription buffer [50 mM KCl, 10 mM Tris-HCl (pH 8.3), 5.5 mM MgCl2, 1 nL/μL Tween 20], 1.25 mM each deoxynucleoside triphosphate, 4 units of rRNasin, and 80 U of MMLV reverse transcriptase (Promega; without primers) and incubation at 37° C. for 2 h. From each 30 μL reaction, 4 μL of cDNA was transferred directly to 384-well PCR plates, and 5 μL of TaqMan universal master mixture (Applied Biosystems) and 1 μL of 5 μM each of the forward and reverse primers for an infection-associated marker or beta-actin (see Table 1) were added. Primer sequences for ACTB (β-actin) were also published previously (Mitsuhashi M, et al. Pharm Res. 25:1116-1124, 2008), which is incorporated in its entirety by reference herein. PCR was carried out in a PRISM 7900HT (Applied Biosystems), with 1 cycle of 95° C. for 10 min followed by 45 cycles of 95° C. for 30 s, 55° C. for 30 s, and 60° C. for 1 min. Each gene was amplified in separate wells. The cycle threshold (Ct), i.e., the cycle at which certain amounts of PCR products (based on fluorescence) were generated, was determined with analytical software (SDS; Applied Biosystems). The Ct of each mRNA was subtracted with that of ACTB to calculate ΔCt, and % ACTB was calculated by 2^−ΔCt×100.
Samples were generally prepared and stimulated as described above, with rIL-2 used at 100 ng/ml and zymosan used at 1.5 mg/mL and stimulation was for four (4) hours at 37° C.

For the next test, the system named is heparinized whole blood. As to the kind of experiment: Leukocyte function profile of control patient (Table 5), ex vivo stimulation of whole blood. Particulars: healthy control subject, statistically significant. The method, then:
Anti-T cell receptor α/β chain (TCR) monoclonal antibody (IgG1K) and control mouse IgG1K were obtained from BioLegend (San Diego, Calif., USA). Reverse transcriptase, dNTP, and RNasin were purchased from Invitrogen (Carlsbad, Calif., USA). All other chemicals were purchased from Sigma-Aldrich (St. Louis, Mo., USA). Immune complex (heat aggregated IgG, HAG) was prepared by heating human IgG at 63° C. for 15 min as described previously (Ostreiko et al., 1987). In 8-well strip microtubes, 1.2 μl each of phytohemagglutinin-L (2 mg/ml), HAG (10 mg/ml), lipopolysaccharide (LPS) (0.5 mg/ml), zymosan A (75 mg/ml), recombinant interleukin 2 (rIL2) (5 μg/ml), phosphate buffered saline (PBS), anti-TCR antibody (50 μg/ml), and control IgG (50 μg/ml), were added respectively into 8 wells, and stored at −80° C. until use.
Heparinized whole blood samples were obtained from Apex Research Institute (Tustin, Calif., USA) after Institutional Review Board approvals. In order to equalize post-blood collection condition, blood samples were stored at 4° C. overnight. Next morning, blood was decanted into a reservoir and using an 8-well multi-channel pipette, 60 μl each of blood was dispensed into 3 strips containing the control agents or stimulants described above (FIG. 5A). The blood volume needed for this test was 1.44 ml (60 μl/well×8 wells×3 strips (triplicate)). […]

Where “and” joins values, the source holds several entries; their conditions need not be identical. Identical values can stand only once.

As to “rIL-2: recombinant interleukin-2, stimulating agent for both offensive and defensive immune markers”, in the test with whole blood [1] (FIG. 1B), the “IL-2 mRNA expression” value is on record as “not self-inducing”. Moreover, in the test on whole blood [1] (FIG. 1C), the “CD25 mRNA induction” value is listed as “induction”. Besides, in the test with whole blood [2], the “ACTB mRNA Avg. (control)” value is on record as 0.9088 fold; the “CD16 mRNA Avg. (offensive)” value is 4-8 fold and 6.1303 fold; the “CTLA4 (1st Primer) mRNA Avg. (defensive)” value came out at 1.0843 fold; the “GARP mRNA Avg. (defensive)” value amounted to 0.7404 fold. Besides, in the test on whole blood [2], the “IFNγ mRNA Avg. (offensive)” value is 260 fold and 260.48 fold; the “TNFα mRNA Avg. (offensive)” value is 4-8 fold and 4.73 fold. In addition, the “ACTB mRNA fold increase” value in the test with heparinized whole blood is “fold increase was <2, or >0.6”.
